Earlier results on 1 compound are cited in PMC11852496, “A Modular Customizable Ligand-Conjugate (LC) System Targeting Ghrelin O-Acyltransferase” (Biomolecules, 2025).

Chains of the proteins cited; added tags and fusions are not shown.
UniProt Q96T53, whole entry: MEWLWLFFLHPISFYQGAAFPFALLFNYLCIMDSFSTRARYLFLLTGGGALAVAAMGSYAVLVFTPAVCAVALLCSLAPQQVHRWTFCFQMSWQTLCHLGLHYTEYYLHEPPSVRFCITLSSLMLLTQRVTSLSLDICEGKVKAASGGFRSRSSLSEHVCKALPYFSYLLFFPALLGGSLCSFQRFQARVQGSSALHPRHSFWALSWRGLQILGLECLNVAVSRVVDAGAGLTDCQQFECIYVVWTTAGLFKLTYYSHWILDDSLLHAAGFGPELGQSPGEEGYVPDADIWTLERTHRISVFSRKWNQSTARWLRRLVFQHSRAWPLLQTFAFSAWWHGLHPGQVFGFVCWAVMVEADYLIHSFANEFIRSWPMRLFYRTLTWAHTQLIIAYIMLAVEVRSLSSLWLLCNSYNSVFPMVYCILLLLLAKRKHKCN

In general, IC50 refers to the concentration at which inhibition is half-maximal.

The target in the data set is hGOAT (human ghrelin O-acyltransferase) (Homo sapiens, UniProt Q96T53). To be noted: read-out: IC50 (GOAT); previously reported ligands, Figure 1A; cited from earlier work.

Each structure is given as a SMILES string.

As to `CC(C)C[C@H](NC(=O)[C@H](Cc1cccc2ccccc12)NC(=O)[C@H](CN)NC(=O)[C@H](CO)NC(=O)CN)C(=O)N[C@@H](CO)C(=O)N1CCC[C@H]1C(=O)N[C@H](C(N)=O)[C@@H](C)O`, the IC50 is 6 nM.
